The values below are quoted from earlier work in paper PMC3409241, “Probing Cocaine-Antibody Interactions in Buffer and Human Serum” (PLoS ONE, 2012).

Counter-ions that a name gives are not always drawn.

For this data set the following is noted: patients who smoked 10–40 mg of cocaine base; cited from earlier work.

In the case of `COC(=O)[C@H]1[C@@H](OC(=O)c2ccccc2)C[C@@H]2CC[C@H]1N2C` [Cocaine, Cocaine hydrochloride], the peak plasma concentrations is 150 to 500 nM.
